## Measured affinities in a library of Ab-14 heavy chain variants

Binding partner: SARS-CoV-2 spike HR2 peptide, sequence PDVDLGDISGINAS.

Parent: Ab-14, a human scFv built as VH, a (GGGGS)3 linker, VL. Only the CDRs of the heavy chain vary.
VH: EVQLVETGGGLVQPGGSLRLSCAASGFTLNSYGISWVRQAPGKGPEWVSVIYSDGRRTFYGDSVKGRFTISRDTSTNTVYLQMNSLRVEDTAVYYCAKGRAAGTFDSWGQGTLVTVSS
VL: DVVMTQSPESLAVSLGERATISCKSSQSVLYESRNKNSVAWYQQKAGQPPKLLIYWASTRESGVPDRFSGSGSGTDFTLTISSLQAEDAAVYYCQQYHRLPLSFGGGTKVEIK

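The parent was found by panning a naive human phage display library on the peptide. The library (AAYL49) carries one to three amino acid substitutions per variant, with no insertions or deletions. AlphaSeq pools MATa yeast showing the antibodies with MATalpha yeast showing the peptide. Binding brings cells together so that they mate, and sequencing counts the barcode pairs among the diploids. The ratio of observed to expected reads was calibrated, replicate by replicate, on BCL2-family standards whose Kd was known from biolayer interferometry. There are three technical replicates.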

Substitutions are numbered in sequence along the VH above, starting at 1 (not Kabat).
The read-out is the apparent dissociation constant on a log10 scale (nM): the lower, the stronger.
The mean shown is taken over the replicates in which the pair was detected.
Where no diploid with the target was found in that replicate, the entry reads "nd": below detection, most likely a poor binder, though not proof of it.
In this assay the parent's reference entry averaged 0.65; its copy inside this library read 4.11 (one replicate of three).
Three control strains display no target. For library AAYL49, 15% of the pairings with them gave a signal, with a median of 4.06 and one signal in twenty below 2.83, so weak values seen in few replicates may be background. The control count says in how many pairings with the empty strains this scFv gave a signal, with their mean in brackets.

changes,"log10 Kd, replicates","log10 Kd (nM), mean",control signals
T28D+G33S+S53T,nd / nd / nd,nd,6 of 9 (4.41)
S35Q+V64R+R100L,nd / nd / nd,nd,1 of 9 (4.31)
G26M+V64G+K65E,nd / nd / nd,nd,2 of 9 (3.48)
G26C+D54W+A102N,nd / nd / nd,nd,4 of 9 (3.77)
I51C+T58L+G99H,4.68 / 4.05 / nd,4.36,5 of 9 (4.04)
S35G+V64M,3.88 / 3.62 / nd,3.75,4 of 9 (4.34)
S31T+I34W+F105D,nd / 2.99 / nd,2.99,0 of 9
T28C+Y32K+V50Y,nd / nd / nd,nd,0 of 9
F27M+N30K+T104S,1.92 / 1.99 / 2.39,2.10,1 of 9 (3.70)
S31D+S35E,4.26 / nd / nd,4.26,1 of 9 (3.20)
S53M+Y60N+G61Q,nd / 2.64 / nd,2.64,0 of 9
R57I+G99N,nd / nd / nd,nd,1 of 9 (3.47)
Y52H+A102E,nd / 2.70 / nd,2.70,0 of 9
T28N+G33D+S63R,nd / nd / nd,nd,1 of 9 (3.62)
Y52V+S63D+D106S,nd / nd / nd,nd,0 of 9
I34H+R100Q+D106C,nd / 4.94 / 3.91,4.42,4 of 9 (3.30)
D54K+K65Y,nd / nd / nd,nd,0 of 9
L29V+S53N+Y60F,nd / 3.73 / nd,3.73,1 of 9 (3.59)
S35Y+G55V+F105E,4.24 / 3.92 / nd,4.08,2 of 9 (4.14)
T28L+N30L+S107Q,1.83 / 2.00 / 2.58,2.13,2 of 9 (3.55)
G55W+R56T+G61V,4.20 / nd / nd,4.20,0 of 9
R57P,nd / nd / nd,nd,2 of 9 (3.68)
L29G+D54H+F105E,nd / nd / nd,nd,2 of 9 (3.51)
T28V+I34T+A101M,nd / nd / nd,nd,0 of 9
L29G+I51N+A102D,5.38 / nd / nd,5.38,0 of 9
R56G+T104E+D106M,nd / nd / nd,nd,0 of 9
Y32D+D54T+G99S,nd / nd / 4.04,4.04,1 of 9 (4.17)
Y32S+R56Q+R100I,nd / 4.32 / nd,4.32,1 of 9 (4.24)
F27T+R57P+A102F,nd / nd / nd,nd,1 of 9 (3.80)
L29C+R57A+R100W,nd / nd / nd,nd,0 of 9
D54H+R57P+F59C,nd / nd / 5.92,5.92,2 of 9 (4.21)
G26P+I34N+D54K,nd / 4.08 / nd,4.08,3 of 9 (4.13)
I34C+G55N+G103T,5.51 / nd / nd,5.51,2 of 9 (3.45)
T28L+S35Y+K65Q,2.21 / 2.09 / 2.35,2.22,4 of 9 (4.22)
G55D+A102T,nd / nd / 2.28,2.28,0 of 9
G26V+T58P+A102E,nd / nd / nd,nd,0 of 9
S53N+R100E+G103F,nd / nd / nd,nd,1 of 9 (2.74)

Again, the first 3 entries without any signal:

{"changes": "T28D+G33S+S53T", "log10 Kd, replicates": "nd / nd / nd", "log10 Kd (nM), mean": "nd", "control signals": "6 of 9 (4.41)"}
{"changes": "S35Q+V64R+R100L", "log10 Kd, replicates": "nd / nd / nd", "log10 Kd (nM), mean": "nd", "control signals": "1 of 9 (4.31)"}
{"changes": "G26M+V64G+K65E", "log10 Kd, replicates": "nd / nd / nd", "log10 Kd (nM), mean": "nd", "control signals": "2 of 9 (3.48)"}

Data: MIT Lincoln Laboratory AlphaSeq set, Engelhart et al. 2022, doi:10.1038/s41597-022-01779-4, as distributed in FLAb.